Results reported in ChEMBL document CHEMBL4311940, “Design, Synthesis, and Biological Evaluation of 4-Methyl Quinazoline Derivatives as Anticancer Agents Simultaneously Targeting Phosphoinositide 3-Kinases and Histone Deacetylases” (J Med Chem, 2019).

Chains of the proteins cited; added tags and fusions are not shown. Lines headed by an entry give the natural chain unless they say otherwise; changes in a name come on top.
UniProt Q13547: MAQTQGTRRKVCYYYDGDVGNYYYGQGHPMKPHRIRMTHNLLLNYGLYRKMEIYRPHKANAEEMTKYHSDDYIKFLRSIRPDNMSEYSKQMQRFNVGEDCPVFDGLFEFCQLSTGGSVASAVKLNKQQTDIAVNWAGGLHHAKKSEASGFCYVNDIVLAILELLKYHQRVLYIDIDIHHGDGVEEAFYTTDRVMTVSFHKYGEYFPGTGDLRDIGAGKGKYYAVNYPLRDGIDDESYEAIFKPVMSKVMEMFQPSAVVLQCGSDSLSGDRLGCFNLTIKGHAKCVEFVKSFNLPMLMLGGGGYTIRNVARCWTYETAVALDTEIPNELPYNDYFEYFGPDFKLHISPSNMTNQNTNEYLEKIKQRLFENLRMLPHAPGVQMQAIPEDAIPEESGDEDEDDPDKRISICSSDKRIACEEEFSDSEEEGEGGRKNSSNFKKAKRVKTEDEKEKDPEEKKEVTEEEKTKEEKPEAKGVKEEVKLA
UniProt O15379: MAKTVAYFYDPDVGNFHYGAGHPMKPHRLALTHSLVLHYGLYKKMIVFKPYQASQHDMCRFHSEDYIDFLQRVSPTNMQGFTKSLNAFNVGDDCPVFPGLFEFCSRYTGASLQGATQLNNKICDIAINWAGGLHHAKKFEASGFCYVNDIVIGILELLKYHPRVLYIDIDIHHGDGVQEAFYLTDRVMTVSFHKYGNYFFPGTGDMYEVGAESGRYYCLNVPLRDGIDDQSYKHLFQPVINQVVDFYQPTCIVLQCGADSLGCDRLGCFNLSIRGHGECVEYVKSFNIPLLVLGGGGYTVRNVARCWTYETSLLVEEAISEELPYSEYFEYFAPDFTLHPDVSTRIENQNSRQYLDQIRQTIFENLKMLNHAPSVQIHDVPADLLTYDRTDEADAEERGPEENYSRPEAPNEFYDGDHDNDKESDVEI
UniProt Q9UBN7: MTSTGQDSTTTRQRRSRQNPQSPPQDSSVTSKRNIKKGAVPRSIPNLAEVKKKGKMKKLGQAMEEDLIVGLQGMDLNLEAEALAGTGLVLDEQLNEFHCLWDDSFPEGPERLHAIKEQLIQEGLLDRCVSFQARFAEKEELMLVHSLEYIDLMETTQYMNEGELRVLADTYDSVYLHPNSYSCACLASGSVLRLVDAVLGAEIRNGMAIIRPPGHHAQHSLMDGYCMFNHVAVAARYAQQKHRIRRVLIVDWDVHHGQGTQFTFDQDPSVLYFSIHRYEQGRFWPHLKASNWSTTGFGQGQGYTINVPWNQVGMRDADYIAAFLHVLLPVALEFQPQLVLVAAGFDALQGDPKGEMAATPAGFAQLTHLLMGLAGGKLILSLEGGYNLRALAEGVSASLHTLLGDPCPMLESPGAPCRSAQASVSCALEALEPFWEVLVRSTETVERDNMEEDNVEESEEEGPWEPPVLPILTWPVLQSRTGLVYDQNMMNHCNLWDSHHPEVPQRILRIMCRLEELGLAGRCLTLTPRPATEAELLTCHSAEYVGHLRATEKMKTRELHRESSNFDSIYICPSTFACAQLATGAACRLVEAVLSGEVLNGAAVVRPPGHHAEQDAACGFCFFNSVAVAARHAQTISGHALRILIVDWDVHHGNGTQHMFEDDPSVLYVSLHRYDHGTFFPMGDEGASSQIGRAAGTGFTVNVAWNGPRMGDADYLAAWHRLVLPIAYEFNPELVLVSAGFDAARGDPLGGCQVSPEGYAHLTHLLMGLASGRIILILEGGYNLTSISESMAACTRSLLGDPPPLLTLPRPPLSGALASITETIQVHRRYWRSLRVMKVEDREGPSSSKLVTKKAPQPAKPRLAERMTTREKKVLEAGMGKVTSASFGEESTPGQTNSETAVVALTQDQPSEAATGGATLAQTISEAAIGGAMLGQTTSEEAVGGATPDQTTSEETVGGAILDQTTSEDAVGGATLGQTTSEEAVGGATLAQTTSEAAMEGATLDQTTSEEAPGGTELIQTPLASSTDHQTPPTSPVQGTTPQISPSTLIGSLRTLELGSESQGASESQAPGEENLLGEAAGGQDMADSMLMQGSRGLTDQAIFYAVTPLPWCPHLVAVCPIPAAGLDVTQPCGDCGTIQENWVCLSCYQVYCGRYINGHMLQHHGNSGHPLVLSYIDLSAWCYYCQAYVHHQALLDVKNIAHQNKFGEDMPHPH
UniProt Q92769: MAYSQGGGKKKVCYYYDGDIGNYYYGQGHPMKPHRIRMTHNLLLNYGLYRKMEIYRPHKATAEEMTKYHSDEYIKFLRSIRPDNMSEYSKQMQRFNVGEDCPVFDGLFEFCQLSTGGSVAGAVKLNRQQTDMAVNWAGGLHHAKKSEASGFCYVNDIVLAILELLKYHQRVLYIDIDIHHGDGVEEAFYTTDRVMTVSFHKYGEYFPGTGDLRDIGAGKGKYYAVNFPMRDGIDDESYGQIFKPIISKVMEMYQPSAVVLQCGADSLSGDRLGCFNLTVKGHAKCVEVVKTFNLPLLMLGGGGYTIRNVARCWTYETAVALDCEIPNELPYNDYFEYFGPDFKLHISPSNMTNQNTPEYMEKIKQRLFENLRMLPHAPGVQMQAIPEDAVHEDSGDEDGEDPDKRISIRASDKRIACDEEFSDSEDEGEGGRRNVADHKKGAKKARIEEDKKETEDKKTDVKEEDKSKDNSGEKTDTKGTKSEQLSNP
UniProt Q8WUI4: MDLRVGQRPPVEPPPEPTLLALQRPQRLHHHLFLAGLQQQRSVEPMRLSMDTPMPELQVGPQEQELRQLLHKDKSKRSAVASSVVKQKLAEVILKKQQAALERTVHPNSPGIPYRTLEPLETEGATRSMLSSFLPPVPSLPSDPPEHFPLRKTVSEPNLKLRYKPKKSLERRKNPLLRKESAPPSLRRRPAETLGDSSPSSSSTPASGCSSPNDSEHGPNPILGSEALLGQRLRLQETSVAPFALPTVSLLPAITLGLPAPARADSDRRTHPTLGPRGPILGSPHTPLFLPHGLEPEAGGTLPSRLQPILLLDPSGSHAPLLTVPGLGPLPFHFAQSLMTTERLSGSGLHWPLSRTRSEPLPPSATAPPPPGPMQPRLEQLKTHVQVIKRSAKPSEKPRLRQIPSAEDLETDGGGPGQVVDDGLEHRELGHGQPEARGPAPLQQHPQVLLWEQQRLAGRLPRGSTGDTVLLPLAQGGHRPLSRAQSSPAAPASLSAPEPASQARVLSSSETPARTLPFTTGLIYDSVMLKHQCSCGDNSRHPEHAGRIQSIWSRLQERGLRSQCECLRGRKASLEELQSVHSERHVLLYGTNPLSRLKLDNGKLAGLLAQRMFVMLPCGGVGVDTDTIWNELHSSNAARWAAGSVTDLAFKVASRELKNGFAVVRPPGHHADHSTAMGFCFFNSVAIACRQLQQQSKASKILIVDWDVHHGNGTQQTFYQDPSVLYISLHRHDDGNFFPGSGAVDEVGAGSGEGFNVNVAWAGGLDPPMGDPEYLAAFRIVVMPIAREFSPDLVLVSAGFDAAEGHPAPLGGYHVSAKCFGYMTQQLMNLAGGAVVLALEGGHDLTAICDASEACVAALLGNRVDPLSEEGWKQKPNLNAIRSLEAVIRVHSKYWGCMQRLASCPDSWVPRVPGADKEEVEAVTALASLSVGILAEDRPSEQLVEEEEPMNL
UniProt Q9BY41: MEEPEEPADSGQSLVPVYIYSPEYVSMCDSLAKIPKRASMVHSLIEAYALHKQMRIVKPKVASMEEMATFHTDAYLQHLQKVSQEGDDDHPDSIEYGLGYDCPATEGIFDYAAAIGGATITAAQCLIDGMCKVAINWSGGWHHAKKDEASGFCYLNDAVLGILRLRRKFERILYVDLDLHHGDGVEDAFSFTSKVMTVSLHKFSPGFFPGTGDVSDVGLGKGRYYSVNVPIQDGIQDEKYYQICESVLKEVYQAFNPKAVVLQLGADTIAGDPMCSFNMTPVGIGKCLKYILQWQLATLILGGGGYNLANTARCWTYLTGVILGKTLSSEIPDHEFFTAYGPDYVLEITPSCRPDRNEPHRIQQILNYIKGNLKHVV
UniProt Q96DB2: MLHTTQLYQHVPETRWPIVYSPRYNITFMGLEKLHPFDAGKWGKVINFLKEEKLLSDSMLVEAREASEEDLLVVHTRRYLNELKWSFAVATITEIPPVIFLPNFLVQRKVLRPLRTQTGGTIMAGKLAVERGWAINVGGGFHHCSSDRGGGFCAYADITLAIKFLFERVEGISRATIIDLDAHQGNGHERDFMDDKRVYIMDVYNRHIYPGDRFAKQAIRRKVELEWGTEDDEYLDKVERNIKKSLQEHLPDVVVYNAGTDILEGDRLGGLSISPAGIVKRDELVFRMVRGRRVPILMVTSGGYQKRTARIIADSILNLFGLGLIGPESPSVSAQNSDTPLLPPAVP
UniProt P56524: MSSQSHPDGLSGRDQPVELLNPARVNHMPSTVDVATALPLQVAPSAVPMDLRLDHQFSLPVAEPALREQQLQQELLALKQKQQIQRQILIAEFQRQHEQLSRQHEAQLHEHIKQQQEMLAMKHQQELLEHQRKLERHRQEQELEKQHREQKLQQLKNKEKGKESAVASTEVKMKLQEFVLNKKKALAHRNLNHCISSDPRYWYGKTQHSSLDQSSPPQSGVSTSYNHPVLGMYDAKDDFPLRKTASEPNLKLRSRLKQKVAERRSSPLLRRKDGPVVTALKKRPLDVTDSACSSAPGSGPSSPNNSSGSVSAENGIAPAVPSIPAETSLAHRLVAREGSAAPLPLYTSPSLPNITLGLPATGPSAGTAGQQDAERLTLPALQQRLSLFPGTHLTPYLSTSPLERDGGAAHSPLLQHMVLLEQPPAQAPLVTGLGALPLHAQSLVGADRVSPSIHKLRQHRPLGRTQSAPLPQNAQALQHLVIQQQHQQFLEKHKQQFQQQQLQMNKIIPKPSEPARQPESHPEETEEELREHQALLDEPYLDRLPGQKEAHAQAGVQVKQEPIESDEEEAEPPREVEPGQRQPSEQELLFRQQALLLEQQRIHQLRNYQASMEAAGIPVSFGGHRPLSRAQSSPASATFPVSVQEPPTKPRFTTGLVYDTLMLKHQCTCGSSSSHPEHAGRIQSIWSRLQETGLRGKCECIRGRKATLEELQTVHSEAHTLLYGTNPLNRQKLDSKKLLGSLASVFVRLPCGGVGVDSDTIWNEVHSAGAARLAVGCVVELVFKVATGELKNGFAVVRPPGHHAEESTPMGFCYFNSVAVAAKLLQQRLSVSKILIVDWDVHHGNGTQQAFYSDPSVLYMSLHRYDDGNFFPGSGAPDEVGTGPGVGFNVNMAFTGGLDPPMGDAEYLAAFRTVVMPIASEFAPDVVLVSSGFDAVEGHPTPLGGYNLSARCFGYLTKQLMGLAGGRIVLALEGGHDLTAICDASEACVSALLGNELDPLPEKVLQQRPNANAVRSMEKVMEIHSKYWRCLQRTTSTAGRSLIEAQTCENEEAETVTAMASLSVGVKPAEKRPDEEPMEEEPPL
UniProt Q9UKV0: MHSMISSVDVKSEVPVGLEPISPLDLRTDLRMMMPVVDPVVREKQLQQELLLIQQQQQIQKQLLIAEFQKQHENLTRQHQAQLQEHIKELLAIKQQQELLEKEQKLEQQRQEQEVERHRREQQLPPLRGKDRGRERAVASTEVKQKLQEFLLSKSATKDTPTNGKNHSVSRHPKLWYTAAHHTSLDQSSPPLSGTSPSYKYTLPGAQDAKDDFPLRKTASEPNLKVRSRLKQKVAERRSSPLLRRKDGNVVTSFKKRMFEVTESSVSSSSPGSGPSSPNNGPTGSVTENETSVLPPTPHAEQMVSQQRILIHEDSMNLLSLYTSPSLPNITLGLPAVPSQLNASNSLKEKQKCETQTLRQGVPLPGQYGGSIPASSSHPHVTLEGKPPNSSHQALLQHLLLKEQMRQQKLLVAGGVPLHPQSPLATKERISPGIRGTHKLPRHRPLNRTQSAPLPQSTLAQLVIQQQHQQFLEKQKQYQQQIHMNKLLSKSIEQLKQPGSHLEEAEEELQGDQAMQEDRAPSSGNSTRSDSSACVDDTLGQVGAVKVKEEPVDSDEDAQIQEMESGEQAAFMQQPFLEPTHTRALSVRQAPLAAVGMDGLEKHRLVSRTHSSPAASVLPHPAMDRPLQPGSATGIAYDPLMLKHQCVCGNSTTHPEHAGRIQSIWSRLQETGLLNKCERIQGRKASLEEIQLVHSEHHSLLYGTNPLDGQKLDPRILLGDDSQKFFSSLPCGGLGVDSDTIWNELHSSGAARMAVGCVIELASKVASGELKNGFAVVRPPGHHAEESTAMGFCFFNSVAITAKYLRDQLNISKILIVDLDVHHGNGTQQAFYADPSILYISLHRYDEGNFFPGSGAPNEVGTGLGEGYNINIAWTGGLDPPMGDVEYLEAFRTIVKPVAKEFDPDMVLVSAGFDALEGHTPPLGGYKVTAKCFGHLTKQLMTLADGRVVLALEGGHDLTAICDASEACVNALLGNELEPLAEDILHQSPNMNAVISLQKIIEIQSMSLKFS

Assays:
[1] = molecular target: T1, Histone deacetylase (Homo sapiens) (UniProt Q13547+O15379+Q9UBN7+Q92769+Q9UQL6+Q8WUI4+Q9BY41+Q96DB2+P56524+Q9UKV0+Q969S8); assay: Inhibition of HDAC in human HCT116 cells assessed as increase in acetylated p53 levels after 16 hrs by Western blot analysis; format: cell-based
In short: (§1)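 HCT116 cells lysed in RIPA after washes in cold PBS. 40 μg protein run on 10−12% SDS-PAGE and transferred to nitrocellulose. Membrane blocked in 5% milk/TBST for 0.5 h, primary antibodies 1:1000 overnight at 4 °C, secondary 1:1000 for 1 h, ECL detection.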

[2] = molecular target: T1, Histone deacetylase (Homo sapiens); assay: Inhibition of HDAC in human HCT116 cells assessed as increase in acetylated histone H3 levels after 16 hrs by Western blot analysis; format: cell-based; in short: as §1

COc1ncc(-c2cc(OCCCCCCC(=O)NO)c3ncnc(C)c3c2)cc1F
inhibition [1]: Dose-dependent effect | inhibition [2]: Dose-dependent effect
